scFv variants of Ab-14 (heavy chain) against a SARS-CoV-2 spike peptide

Reference: Li et al. 2023, doi:10.1038/s41467-023-39022-2. File: FLAb, binding data.

Antigen: PDVDLGDISGINAS, a 14-residue peptide of the SARS-CoV-2 spike HR2 region.

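This is the validation round: designs drawn from the data on random variants, tested in the same kind of assay. Their group label is 14H_En_Gibbs (En: ensemble of fine-tuned language models; Gibbs: Gibbs sampling). The scFvs were displayed on barcoded MATa yeast, the peptide on MATalpha yeast. Binding brings cells together so that they mate, and sequencing counts the barcode pairs among the diploids. A regression on co-assayed BCL2-family reference pairs converts the normalised counts of each replicate to an apparent Kd. Mating was done six times.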

The variants keep the light chain, the linker and the frameworks of Ab-14 (scFv order VH, three GGGGS repeats, VL).
VH: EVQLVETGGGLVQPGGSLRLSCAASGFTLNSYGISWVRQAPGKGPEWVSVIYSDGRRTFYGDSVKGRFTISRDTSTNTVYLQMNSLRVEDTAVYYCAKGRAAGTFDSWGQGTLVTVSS
VL: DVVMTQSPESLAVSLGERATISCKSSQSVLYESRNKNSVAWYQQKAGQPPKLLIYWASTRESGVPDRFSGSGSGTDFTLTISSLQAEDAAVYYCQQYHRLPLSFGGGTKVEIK

Each variant is given by its three heavy chain CDRs, as the data file delimits them; those of the parent are GFTLNSYGIS, VIYSDGRRTFYGDSVK, GRAAGTFDS.
The read-out is the apparent dissociation constant on a log10 scale (nM): the lower, the stronger.
Averages over replicates are reported, and they cover detected replicates only.
"ND" marks a missing value. The strain was present, yet no cells mated with the target were sequenced in that replicate, which points to weak or no binding.
A sequence measured in both rounds can read differently, since the two assays cover different ranges.
Nonspecific signal, from three strains lacking the peptide, appeared in 1% of pairings of all heavy chain designs, centred on 2.08 (5% of these signals below 0.84); values are not corrected for it. The control count says in how many pairings with the empty strains this scFv gave a signal, with their mean in brackets.
In the paper, a design with two or fewer of six values counts as a poor binder.

| CDR-H1 | CDR-H2 | CDR-H3 | log10 Kd (nM) by replicate | mean, log10 nM | control signals |
|---|---|---|---|---|---|
| GFQLDEYGIS | VIYADGVRSSYVDSVK | GEITGAFSE | ND ND ND ND ND ND | ND | 0 of 18 |
| GFSLDEYGIS | VIYADGVRKSYMDSVK | GNITGTLFA | ND ND 2.24 ND ND ND | 2.24 | 1 of 18 (2.31) |
| GADLNEYGIS | VIYADGDRKAYQDDFK | GDVGGDFDE | ND ND ND ND ND ND | ND | 0 of 18 |
| GKSLDEYGIS | VIYADGSREAYSESFK | GQGAAIFML | ND ND ND ND ND ND | ND | 0 of 18 |
| GFDIEDYGIS | VIYADGVRAMYKENFK | GQIAGTFLI | ND ND ND 1.39 ND ND | 1.39 | 0 of 18 |
| GFKLEEYGIS | VIYADGIRVFYADSVK | GGFDGYKFI | ND ND ND ND ND ND | ND | 0 of 18 |
| GFNIQEYGIS | VIYADGKRTAYAEPVK | GEDGGTIDT | ND ND ND 2.61 ND ND | 2.61 | 0 of 18 |
| GFDIDEYGIS | VIYADGSRAVYTESVK | GHNGNLLVG | ND ND ND ND ND ND | ND | 0 of 18 |
| GFELDEYGIS | VIYADGARTGYVDNVK | GEAGIDFHV | ND ND ND ND ND ND | ND | 0 of 18 |
| GFDLESYGIS | VIYADGMRTSYTANVK | GKNVMIMTG | ND ND ND ND ND ND | ND | 0 of 18 |
| GKLLDEYGIS | VIYADGMRMVYAPSVK | GNLTDTLLV | ND ND ND ND ND ND | ND | 0 of 18 |
| GFGLDEYGIS | VIYADGQRKFYADNVK | GVFGSLGQV | ND ND ND ND ND ND | ND | 0 of 18 |
| GKNLEEYGIS | VIYADGMRTAYKESVK | GQVAGIGKF | ND ND ND ND ND ND | ND | 0 of 18 |
| GFDIEEYGIS | VIYADGMRSSYSQSFK | GLQSGNISV | ND ND ND ND ND ND | ND | 0 of 18 |
| GFQIDEYGIS | VIYADGKRSGYKNSVK | GNFNVSGSV | ND ND ND ND ND ND | ND | 1 of 18 (1.05) |
| GFDLDKYGIS | VIYADGKRVAYTDDVK | GVTGGMLLV | ND ND ND ND ND ND | ND | 0 of 18 |
| GFDIDEYGIS | VIYADGQRKAYTENVK | GQHGGMTVA | ND ND ND ND ND ND | ND | 0 of 18 |
| GFKLDEYGIS | VIYADGSRTEYVQSVK | GDTTVIKFV | ND ND ND ND ND ND | ND | 0 of 18 |
| GFSIDEYGIS | VIYADGVRTAVDPSVK | GQMAAYFDK | ND ND ND ND ND ND | ND | 1 of 18 (2.10) |
| GFGLSEYGIS | VIYADGMRTSYDDSVK | GALAGTFDE | -0.14 -0.32 -0.47 -0.42 -0.31 -0.24 | -0.32 | 0 of 18 |
| GFNLDEYGIS | VIYADGVRTAYASKVK | GKVWWFLLM | ND ND ND ND ND ND | ND | 0 of 18 |
| GFKIDEYGIS | VIYADGHRTQYSEQVK | GVNMGFLVE | ND ND ND ND ND ND | ND | 0 of 18 |
| GEDLLEYGIS | VIYADGIRVAYTNQVK | GNEAGFFTL | ND ND ND ND ND ND | ND | 0 of 18 |
| GFDLNEYGVS | VIYADGQRRAYAANFK | GVNIGGLDI | ND ND ND ND ND ND | ND | 0 of 18 |
| GFSLDEMGIS | VIYADGQRTAYVDNVK | GVQGVVVGL | ND ND ND ND ND ND | ND | 0 of 18 |
| GDGLKEYGIS | VIYADGMRTSYVNDVK | GQKSGGFNL | ND ND ND ND ND ND | ND | 0 of 18 |
| GPNLEEYGIS | VIYADGIRTAYKDSVK | GQVAGIGKF | ND ND ND ND ND ND | ND | 0 of 18 |
| GFNMDEYGIS | VIYADGRRTFYTNSVK | GVVTWSGKV | ND ND ND ND ND ND | ND | 0 of 18 |
| GKNLDEYGIS | VIYADGVRSHYAESVK | GQHGTFGVA | ND ND ND ND ND ND | ND | 0 of 18 |
| GEDLMEYGIS | VIYADGERKSYVNSVK | GGVSVNFSS | ND ND ND ND ND ND | ND | 1 of 18 (2.68) |
| SFSLDDYGIS | VIYADGMRKAYVDEVK | GYVAGTFDE | 0.10 0.52 0.12 0.18 0.08 0.45 | 0.24 | 2 of 18 (1.87) |
| GFSLEEYGIS | VIYADGKRDVYADSVK | GSESGWFDI | ND ND ND ND ND ND | ND | 0 of 18 |
| GFALDEYGIS | VIYADGSRTVYAGDVK | GMLGVNFTY | ND ND ND ND ND ND | ND | 0 of 18 |
| GFDLNEYGVS | VIYADGFRTAYTDTVK | GNIFDAIMA | ND ND ND ND ND ND | ND | 1 of 18 (1.68) |
| GFNLNEYGIS | VIYADGKRTFYIDGVK | GTWYVFGMG | ND ND ND ND ND ND | ND | 0 of 18 |
| GFDINEYGVS | VIYADGMRTYYDDKVK | GSNGDMLLD | ND 1.93 ND ND ND ND | 1.93 | 1 of 18 (1.76) |
| GFSLEEYGIS | VIYADGKRDVYADSVK | GHISGWFDI | ND ND ND ND 2.52 ND | 2.52 | 0 of 18 |
| GFSLDEMGIS | VIYADGQRTAYQDNVK | GQNGVVVFV | ND ND ND ND ND ND | ND | 0 of 18 |
| GKSLDEYGIS | VIYADGMRTMYTDSVK | GQLDDGMQL | ND ND ND ND ND ND | ND | 0 of 18 |
| GQDLMEYGIS | VIYADGTRTMYTDDVK | GEFGDQGKT | ND ND ND ND ND ND | ND | 0 of 18 |
| GFELDEYGIS | VIYADGKRKFYDQAVK | GKTGGVILD | ND ND ND ND ND ND | ND | 0 of 18 |
| GFNLEEYGIS | VIYADGMRSEYTDNVK | GHKGNWFQD | 0.82 0.30 0.53 0.87 0.11 0.54 | 0.53 | 1 of 18 (1.85) |
| GENIEEYGIS | VIYADGRRTAYAEPVK | GQSGGTIDT | ND ND ND ND 1.94 ND | 1.94 | 0 of 18 |
| GFNINEYGVS | VIYADGERTYYADKVK | GHNGVMALD | 1.16 1.21 1.56 1.68 ND 0.82 | 1.29 | 1 of 18 (2.79) |
| GFKLDEYGIS | VIYADGSRTEYVQSVK | GDTSVIKFV | 0.62 1.84 ND ND 1.29 1.80 | 1.39 | 0 of 18 |

Excerpt, the first 5 entries:

| CDR-H1 | CDR-H2 | CDR-H3 | log10 Kd (nM) by replicate | mean, log10 nM | control signals |
|---|---|---|---|---|---|
| GFQLDEYGIS | VIYADGVRSSYVDSVK | GEITGAFSE | ND ND ND ND ND ND | ND | 0 of 18 |
| GFSLDEYGIS | VIYADGVRKSYMDSVK | GNITGTLFA | ND ND 2.24 ND ND ND | 2.24 | 1 of 18 (2.31) |
| GADLNEYGIS | VIYADGDRKAYQDDFK | GDVGGDFDE | ND ND ND ND ND ND | ND | 0 of 18 |
| GKSLDEYGIS | VIYADGSREAYSESFK | GQGAAIFML | ND ND ND ND ND ND | ND | 0 of 18 |
| GFDIEDYGIS | VIYADGVRAMYKENFK | GQIAGTFLI | ND ND ND 1.39 ND ND | 1.39 | 0 of 18 |